≈ marks a conversion by molar mass, not a printed value. Where “and” joins values, the source holds several entries; their conditions need not be identical. Equal entries are not always repeated.
Legend:
Test in all cases: Antimicrobial activity, broth microdilution MIC
Type in all cases: cell-based
Settings in all cases: modified CLSI broth microdilution, LB medium, 1 × 10^6 CFU/ml, 37 °C, 18 to 20 hours, absorbance 600 nm
[1] = tested on: Bacillus subtilis (1.3376)
Protocol: (§1) The antibacterial activities of the peptides against three Gram-negative bacteria and three Gram-positive bacteria strains were measured using a modified version of the Clinical Laboratory and Standards Institute (CLSI) broth microdilution method as described previously. Three Gram-negative bacteria, Escherichia coli (1.8732), Pseudomonas aeruginosa (1.2421), and Klebsiella pneumonia (1.1736), and three Gram-positive bacteria, Staphylococcus aureus (1.8721), Staphylococcus epidermidis (1.4260), and Bacillus subtilis (1.3376), were purchased from the China General Microbiological Culture Collection Centre (CGMCC). Briefly, bacteria were grown in liquid LB medium (tryptone, 10 g/L, yeast extract, 5 g/L and NaCl, 10 g/L) at 37 °C to mid-log phase, and the bacteria were diluted to 1 × 10^6 colony-forming units (CFU)/ml. The peptides were serially diluted with phosphate-buffered saline (PBS), and 50 μl diluted peptides were added to 50 μl of the bacterial suspension in 96-well plate (Corning Inc., Lowell, MA, USA). After incubation at 37 °C for 18 to 20 hours, the absorbance of each well was recorded using a multi-well microplate reader (SpectraMax M5; Molecular Devices, Sunnyvale, CA, USA) at 600 nm. The lowest concentration at which the peptide inhibited complete growth of the bacteria was taken as the minimal inhibitory concentration (MIC).

[2] = tested on: Escherichia coli (1.8732)
Protocol: as §1

[3] = tested on: Pseudomonas aeruginosa (1.2421)
Protocol: as §1

[4] = tested on: Staphylococcus aureus (1.8721)
Protocol: as §1

[5] = tested on: Staphylococcus epidermidis (1.4260)
Protocol: as §1

SMILES: CC[C@H](C)[C@H](NC(=O)CN)C(=O)NCC(=O)N[C@@H](C)C(=O)N[C@H](C(=O)N[C@@H](CC(C)C)C(=O)N[C@@H](CCCCN)C(=O)N[C@H](C(=O)N[C@@H](CC(C)C)C(=O)N[C@H](C(=O)N[C@H](C(=O)NCC(=O)N[C@@H](CC(C)C)C(=O)N1CCC[C@H]1C(=O)N[C@@H](C)C(=O)N[C@@H](CC(C)C)C(=O)N[C@H](C(=O)N[C@@H](CO)C(=O)N[C@@H](Cc1c[nH]c2ccccc12)C(=O)N[C@H](C(=O)N[C@@H](CCCCN)C(=O)N[C@@H](CCCNC(=N)N)C(=O)N[C@@H](CCCCN)C(=O)N[C@@H](CCCNC(=N)N)C(=O)N[C@@H](CCC(N)=O)C(=O)N[C@@H](CCC(N)=O)C(N)=O)[C@@H](C)CC)[C@@H](C)CC)[C@@H](C)O)[C@@H](C)O)C(C)C)C(C)C [Melittin, reference compound]
- MIC B. subtilis [1]: 3.125 µM and 3.13 µM
- MIC E. coli [2]: 12.5 µM (≈ 35.6 µg/mL)
- MIC P. aeruginosa [3]: 6.25 µM (≈ 17.8 µg/mL)
- MIC S. aureus [4]: 3.125 µM and 3.13 µM
- MIC S. epidermidis [5]: 3.125 µM and 3.13 µM

Source: article PMC4897634, “Design of an α-helical antimicrobial peptide with improved cell-selective and potent anti-biofilm activity” (Scientific Reports, 2016)
